Ab-14 light chain CDR variants: yeast mating affinities

Values reported by Li et al. 2023, doi:10.1038/s41467-023-39022-2 (FLAb copy).

Target peptide (SARS-CoV-2 spike, HR2 region): PDVDLGDISGINAS

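Designed CDR sequences, proposed from the first random library and measured here. Their group label is 14L_GP_HC (GP: Gaussian process model; HC: hill climbing; a sequence that several methods proposed may carry one label only). AlphaSeq pools MATa yeast showing the antibodies with MATalpha yeast showing the peptide. The frequency of each diploid, read from paired DNA barcodes, reflects how well the two displayed proteins bind. Each replicate has its own calibration line, from reference interactions of the BCL2 family. The assay was run in six technical replicates.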

Parent scFv Ab-14: VH joined to VL by a 15-residue (Gly4Ser)3 linker. Changes lie in the light chain CDRs alone.
VH: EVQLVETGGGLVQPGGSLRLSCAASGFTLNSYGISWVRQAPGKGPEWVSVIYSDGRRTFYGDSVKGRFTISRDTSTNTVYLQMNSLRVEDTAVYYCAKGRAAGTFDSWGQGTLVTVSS
VL: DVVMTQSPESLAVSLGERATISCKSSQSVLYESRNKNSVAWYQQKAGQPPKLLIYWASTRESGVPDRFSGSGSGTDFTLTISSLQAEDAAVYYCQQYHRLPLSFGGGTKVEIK

Each variant is given by its three light chain CDRs, as the data file delimits them; those of the parent are KSSQSVLYESRNKNSVA, WASTRES, QQYHRLPLS. Numbers give log10(Kd / nM), so 0 is 1 nM and 3 is 1 µM. Smaller is tighter. An entry "ND" has no value in the source: the pair was not observed among the diploids in that replicate. This suggests poor binding but is not conclusive. The authors averaged sequences with at least three values out of six and counted those with two or fewer as poor binders.

| # | CDR-L1 | CDR-L2 | CDR-L3 | log10 Kd, replicates | empty controls |
|---|---|---|---|---|---|
| 1 | KQPQGVLYESRNKNSVA | GASVRES | QQYHRLPLS | -0.20 / -0.26 / -0.36 / -0.40 / -0.11 / 0.05 | 0/18 |
| 2 | KVSQSMLYESGTKNSVA | NASYRES | QQYHRLPLS | 0.46 / 0.20 / -0.03 / 0.14 / 0.03 / 0.30 | 0/18 |
| 3 | KSSYSTLYESGNKNSVA | HASTRED | QQYHRLPLS | -0.02 / -0.13 / -0.10 / 0.08 / 0.07 / 0.24 | 0/18 |
| 4 | KSGQGVLYESRNQNSVA | GASLRES | QQYHRLPLS | 0.39 / 0.24 / 0.38 / 0.36 / 0.50 / 0.20 | 1/18 (2.71) |
| 5 | KSLQSVVYESRNKNSVA | HASTRED | QQYHRLPLS | 0.40 / 0.51 / 0.37 / 0.28 / 0.26 / 0.21 | 0/18 |
| 6 | KSSQSFLYESRWKNSVA | GASTRES | QQYHRLPLS | 0.36 / 1.11 / 0.45 / 0.64 / 0.78 / 1.06 | 0/18 |
| 7 | KLPQGVLYESRNKNSVA | EASVRES | QQYHRLPLS | -0.04 / -0.10 / -0.24 / -0.43 / -0.34 / -0.17 | 0/18 |
| 8 | KQSQSYLCESRNKNSVA | DASTRES | QQYHRLPLS | 0.15 / 0.69 / 0.38 / 0.95 / 0.46 / 0.57 | 0/18 |
| 9 | QVSQSFLYESRNKNSVA | GASTRES | QQYHRLPLS | -0.32 / -0.39 / -0.42 / -0.66 / -0.56 / -0.38 | 1/18 (3.49) |
| 10 | KMSQSVDQESRNKNSVA | DASTRES | QQYHRLPLS | 0.47 / 0.12 / 0.05 / -0.01 / -0.11 / -0.03 | 0/18 |
| 11 | KSSISYLGEIRNKNSVA | EASTRES | QQYHRLPLS | 0.22 / -0.05 / -0.19 / -0.36 / -0.22 / 0.07 | 0/18 |
| 12 | KSSISELYESVNKNSVA | EASTRES | QQYHRLPLS | 0.13 / 0.05 / 0.09 / -0.09 / 0.07 / 0.12 | 4/18 (2.82) |
| 13 | KFSQWQLYESRTKNSVA | NASTRES | QQYHRLPLS | 0.54 / 0.22 / 0.50 / 0.03 / 0.20 / 0.23 | 0/18 |
| 14 | KSQQSQLYESRNFNSVA | DASTRED | QQYHRLPLS | 0.16 / 0.17 / -0.17 / -0.24 / 0.02 / 0.01 | 1/18 (4.00) |
| 15 | KFSQSVLYESRMKNSVA | NASTRES | QQYHQLPLS | 0.00 / 0.00 / 0.08 / 0.20 / 0.22 / 0.35 | 2/18 (2.25) |
| 16 | KSSQSYHYGSRNKNSVA | GASTRES | QQYHRLPLS | 0.92 / 1.19 / 1.26 / 1.11 / 0.96 / 1.15 | 1/18 (1.28) |
| 17 | KLRQSTLYESRNKNSVA | NASTRLS | QQYHRLPLS | 0.69 / 0.41 / 0.35 / 0.19 / 0.50 / 0.50 | 1/18 (2.31) |
| 18 | KILQSVLYESRNKNSVA | HASTRES | QQYHRLPLS | 0.82 / 0.32 / 0.20 / 0.17 / 0.15 / -0.11 | 0/18 |
| 19 | HSSPSVAYEDRNKNSVA | NASTRES | QQYHRLPLS | 0.24 / 0.02 / 0.06 / -0.10 / 0.10 / 0.08 | 1/18 (2.89) |
| 20 | HSSPSVYYESRNKNSVA | NASSRES | QQYHRLPLS | 0.43 / 0.46 / 0.01 / 0.28 / 0.17 / 0.15 | 3/18 (2.36) |
| 21 | HSSESVLYESRNGNSVA | NASTRES | QQYHRLPLS | 0.83 / 0.82 / 0.72 / 0.63 / 0.72 / 0.77 | 2/18 (2.59) |
| 22 | KLRQSTLYESRNKNSVA | YASTRLS | QQYHRLPLS | 3.05 / 1.41 / 1.65 / 1.62 / 1.52 / 2.49 | 2/18 (2.78) |
| 23 | HLSWSVLYESRNKNSVA | NASTRES | QQYHRLPLN | 0.22 / 0.16 / 0.11 / 0.03 / 0.12 / 0.41 | 0/18 |
| 24 | KSSWSYLEESRNKNSVA | EASTRES | QQYHRLPLS | 0.19 / 0.35 / 0.08 / 0.07 / 0.05 / 0.26 | 2/18 (2.19) |
| 25 | KVRQSTLYESRNKNSVA | KASTRES | QQYHRLPLS | 1.01 / 0.97 / 1.18 / 0.61 / 0.84 / 0.70 | 0/18 |
| 26 | KVSPSELYESRNKNSVA | QASTRES | QQYHRLPLS | -0.36 / -0.13 / -0.36 / -0.66 / -0.29 / -0.37 | 0/18 |
| 27 | KSLWSVLYESLNKNSVA | HASTRED | QQYHRLPLS | 1.83 / 1.08 / 1.54 / 1.34 / 1.38 / 1.36 | 1/18 (1.95) |
| 28 | KLQQQNLYESRNKNSVA | SASTREE | QQYHRLPLS | 0.47 / 0.31 / 0.24 / -0.35 / -0.11 / 0.01 | 0/18 |
| 29 | KSSISKLYESGNKNSVA | EASTRES | QQYHRLPLS | 0.49 / 0.56 / 0.35 / 0.03 / -0.05 / 0.12 | 0/18 |
| 30 | HSSPSWLYESRNKNNVA | NASTRES | QQYHRLPLS | 0.01 / -0.07 / -0.24 / -0.18 / -0.15 / -0.16 | 3/18 (2.80) |
| 31 | KMEQGMLYESRNKNSVA | NASVRES | QQYHRLPLS | 0.19 / -0.13 / -0.32 / -0.27 / -0.19 / -0.11 | 3/18 (2.87) |
| 32 | IAVQSELYESRNKNSVA | GASTRES | QQYHRLPLI | 0.38 / 0.26 / 0.27 / 0.25 / 0.16 / 0.38 | 0/18 |
| 33 | KLRQSTLYESRNKNSVA | GASTRES | QQWHRLPLS | ND / ND / 1.13 / ND / ND / ND | 0/18 |
| 34 | KVSWSVLFESRNKNSVA | DASTRES | QQYHRLPLS | 0.22 / -0.04 / 0.09 / -0.20 / 0.04 / -0.03 | 0/18 |
| 35 | KSGISYLEESRNKNSVA | EASTRES | QQYHRLPLS | 0.21 / 0.05 / 0.04 / -0.17 / -0.10 / 0.21 | 0/18 |
| 36 | KVQQSQLYESRNKNSVA | NASTRED | QQYHRLPLS | -0.48 / -0.59 / -0.61 / -0.53 / -0.35 / -0.21 | 1/18 (2.12) |
| 37 | KLYNSTLYESRQKNSVA | WASTRES | QQYHRLPLS | 2.03 / 1.70 / 1.48 / 1.68 / 2.32 / 1.68 | 1/18 (3.16) |
| 38 | KYSQSFLYESRWKNSVA | GASQRES | QQYHRLPLS | 0.32 / 0.36 / 0.32 / 0.33 / 0.47 / 0.28 | 1/18 (1.95) |
| 39 | KLRMSTLYESRNKNSVA | YASTRES | QQYHRLPLS | 1.04 / 0.69 / 0.75 / 0.58 / 0.37 / 0.89 | 0/18 |
| 40 | KFSQSVLYESRTKNSVA | NAVTREM | QQYHRLPLS | 0.00 / -0.73 / 0.01 / -0.74 / -0.57 / -0.58 | 0/18 |
| 41 | KVSISYLLESRNKNSVA | EAVTRES | QQYHRLPLS | -0.24 / -0.16 / -0.21 / -0.44 / 0.12 / 0.07 | 0/18 |
| 42 | KSSQSWLYESRNFWSVA | GASQRES | QQYHRLPLS | 0.95 / 0.89 / 0.83 / 0.65 / 0.53 / 0.84 | 1/18 (2.75) |
| 43 | KVSPSVLYESHNKNSVA | NASTRMS | QQYHRLPLS | 0.21 / 0.10 / -0.06 / 0.04 / -0.10 / 0.12 | 0/18 |
| 44 | KSSSSYLYESGNKNSVA | NASTRES | QQYHRLPLS | 0.36 / 0.28 / 0.22 / 0.16 / 0.32 / 0.19 | 0/18 |

Excerpt, the final 3 entries:

{"CDR-L1": "KSSQSWLYESRNFWSVA", "CDR-L2": "GASQRES", "CDR-L3": "QQYHRLPLS", "log10 Kd, replicates": "0.95 / 0.89 / 0.83 / 0.65 / 0.53 / 0.84", "empty controls": "1/18 (2.75)"}
{"CDR-L1": "KVSPSVLYESHNKNSVA", "CDR-L2": "NASTRMS", "CDR-L3": "QQYHRLPLS", "log10 Kd, replicates": "0.21 / 0.10 / -0.06 / 0.04 / -0.10 / 0.12", "empty controls": "0/18"}
{"CDR-L1": "KSSSSYLYESGNKNSVA", "CDR-L2": "NASTRES", "CDR-L3": "QQYHRLPLS", "log10 Kd, replicates": "0.36 / 0.28 / 0.22 / 0.16 / 0.32 / 0.19", "empty controls": "0/18"}

Of ten entries with the parent sequence, four were seen in most replicates (averages 0.34 to 2.37), three in one and three in none, so single entries are noisy. Background: pairings of all light chain designs with three empty control strains gave a value in 4% of cases (median 2.64, 5th percentile 1.59). Values in that range, when seen in few replicates, are hard to tell from nonspecific mating. For each scFv, signals with the empty controls are counted beside the result, with their mean in brackets. The range of this assay differs from that of the first round, and the authors advise against merging the two.